Reference: patent publication US12391770B2, “Compositions and methods comprising antibodies that bind to covalent peptide conjugates” (New York University, priority 2021, dated 2025)

How the values were obtained:
Lung cancer cell lines = assay: Cytotoxicity of scDb on AMG510-treated lung cancer cell lines co-cultured with human T-cells (FIG. 19); assay type: cell-based; details: 100 nM AMG510 for 24 hr, human T-cells E:T=5:1, cell viability
Protocol: FIG. 19. Graphs showing specific cytotoxic effect of AMRA3-7_UCHT1 scDb on drug-treated lung cancer cell lines. (A) Lung cancer cell lines were treated with 100 nM AMG510 for 24 hr, then co-cultured with human T-cells (E:T=5:1) in the presence of AMRA3-7_UCHT1 scDb. After incubation, cell viability was measured. […] (B) Cytotoxic effect of scDb at 0.1 nM concentration. Data shown here are from quadruplicate measurements.
To obtain the results for FIG. 19, lung cancer cell lines were cultured in RPMI supplemented with 10% fetal bovine serum (FBS) and penicillin/streptomycin. For cytotoxicity assays, 1×10^4 cells/well were seeded in 96-well flat bottom plates and incubated at 37° C., 5% CO2 for 24 hours. Media were replaced with fresh media supplemented with 100 nM AMG510 or DMSO, then the cells were incubated for 24 hours at 37° C. After incubation, cells were co-cultured with human T cells (E:T=5:1) and AMRA3-7_UCHT1 scDb in the presence of 100 IU/mL IL-2 for 24 hr at 37° C. Cell viability was assessed by using PrestoBlue™ Cell Viability Reagent (ThermoFisher, A13261). Cytotoxicity was calculated by taking the fluorescent signal of a given well, subtracting the fluorescent signal from the wells that contain only T-cells, and normalizing to the fluorescent signal from the wells without scDb.

Raji cells = assay: Cell killing of peptide-drug-pulsed Raji cells co-cultured with human T cells (FIG. 21A, 22B); assay type: cell-based; details: Raji cells pulsed with AMG510-KRAS(G12C) peptide conjugate or KRAS(wild type) control peptide, human T cells E:T=3:1
Protocol: To obtain the results for FIG. 21 (A) and FIG. 22 (B), Raji cells (ATCC) were cultured in RPMI supplemented with 10% fetal bovine serum (FBS) and penicillin/streptomycin. The cytotoxic effects of scDb and CrossMab were measured by following the protocol published previously (ref: PMID 26813960). Briefly, Raji cells were stained with carboxyfluorescein succinimidyl ester (CSFE, ThermoFisher, 65-0850-84), then incubated with 10 μM KRAS(G12C)-AMG510 conjugate or 10 μM KRAS(WT) peptide (final concentrations) in the presence of 10 μg/mL human beta-2 microglobulin for 4 hr. The cells were harvested by centrifugation and washed in media to remove the unbound conjugate and peptide. Peptide-drug-pulsed cells were then co-cultured with human T-cells (E:T=3:1) in the presence of scDb or CrossMab for 19 hr. After incubation, cells were harvested and washed with PBS, then stained with Fixable Viability Dye eFluor660 (ThermoFisher, 65-0864-14). After washing again, cells were analyzed on iQue screener (Satorius).
(A) Raji cells were first pulsed with AMG510 conjugated to a peptide corresponding to a fragment of KRAS(G12C) or a control peptide corresponding to KRAS(wild type). […] After incubation for 17 hours, dead cells were stained and detected by flow cytometry. […] After incubation, dead cells were measured by detecting a distinct intracellular protease activity released from membrane-compromised cells. […]

Molecule	cytotoxic effect on drug-treated lung cancer cell lines (Lung cancer cell lines)	cell killing effect on pulsed Raji cells (Raji cells)
AMRA3-7_UCHT1 scDb: single-chain Diabody, SEQ ID NO: 144 (protein) DIVRSDIQMTQSPSSLSASVGDRVTITCRASQSVSSAVAWYQQKPGKAPKLLIYSASSLYSGVPSRFSGSRSGTDFTLTISSLQPEDFATYYCQQISYVYSLITFGQGTKVEIKGGGGSEVQLQQSGPELVKPGASMKISCKASGYSFTGYTMNWVKQSHGKNLEWMGLINPYKGVSTYNQKFKDKATLTVDKSSSTAYMELLSLTSEDSAVYYCARSGYYGDSDWYFDVWGQGTTLTVSSGGGGSGGGGSGGGGSDIQMTQTTSSLSASLGDRVTISCRASQDIRNYLNWYQQKPDGTVKLLIYYTSRLHSGVPSKFSGSGSGTDYSLTISNLEQEDIATYFCQQGNTLPWTFAGGTKLEIKGGGGSEVQLVESGGGLVQPGGSLRLSCAASGFTFSSYSIHWVRQAPGKGLEWVASIYSSYGYTSYADSVKGRFTISADTSKNTAYLQMNSLRAEDTAVYYCARGGWYPAMDYWGQGTLVTVSSLEGGGGLNDIFEAQKIEWHESRHHHHHH	dose-dependent cytotoxic effect only on the AMG510-treated cells with the cognate KRAS mutation (G12C) and HLA (HLA-A3)	–
AMRA3-7D scDb: single-chain Diabody, SEQ ID NO: 148 (protein) DIVRSDIQMTQSPSSLSASVGDRVTITCRASQSVSSAVAWYQQKPGKAPKLLIYSASSLYSGVPSRFSGSRSGTDFTLTISSLQPEDFATYYCQQISYVKKLITFGQGTKVEIKGGGGSEVQLQQSGPELVKPGASMKISCKASGYSFTGYTMNWVKQSHGKNLEWMGLINPYKGVSTYNQKFKDKATLTVDKSSSTAYMELLSLTSEDSAVYYCARSGYYGDSDWYFDVWGQGTTLTVSSGGGGSGGGGSGGGGSDIQMTQTTSSLSASLGDRVTISCRASQDIRNYLNWYQQKPDGTVKLLIYYTSRLHSGVPSKFSGSGSGTDYSLTISNLEQEDIATYFCQQGNTLPWTFAGGTKLEIKGGGGSEVQLVESGGGLVQPGGSLRLSCAASGFTFSDYSIHWVRQAPGKGLEWVASISSSSGSTSYADSVKGRFTISADTSKNTAYLQMNSLRAEDTAVYYCARGGWYPAMDYWGQGTLVTVSSLEGGGGLNDIFEAQKIEWHESRHHHHHH	–	Dose-dependent cell killing effect
